Our source for the EC50 values is publication PMC3504387 (Chemmedchem, 2012).

This assay concerns the target T1, GST–PPARα (ligand binding domain, TR-FRET) (Homo sapiens, UniProt Q07869).
T1 construct: gene PPARA
T1 sequence (Q07869 196-468 limits assumed): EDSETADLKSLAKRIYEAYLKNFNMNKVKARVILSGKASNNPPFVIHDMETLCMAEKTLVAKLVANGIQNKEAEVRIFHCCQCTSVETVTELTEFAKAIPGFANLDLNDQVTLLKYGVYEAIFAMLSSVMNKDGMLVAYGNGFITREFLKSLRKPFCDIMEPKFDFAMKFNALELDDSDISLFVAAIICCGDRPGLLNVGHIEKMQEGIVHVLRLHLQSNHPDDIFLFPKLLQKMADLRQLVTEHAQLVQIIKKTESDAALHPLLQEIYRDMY
In words: TR-FRET cofactor peptide recruitment.

Regarding `Cc1oc(-c2ccccc2)nc1CCOc1ccc(C[C@H](Nc2ccccc2C(=O)c2ccccc2)C(=O)O)cc1` [Farglitazar], the EC50 amounted to 479 nM.
